Consider one molecule from US10329299B2, “Heterocyclic compounds and uses thereof” (Infinity Pharmaceuticals, Inc., priority 2013, dated 2019).

Chains of the proteins cited; added tags and fusions are not shown. Lines headed by an entry give the natural chain unless they say otherwise; changes in a name come on top.
UniProt P42336, whole entry: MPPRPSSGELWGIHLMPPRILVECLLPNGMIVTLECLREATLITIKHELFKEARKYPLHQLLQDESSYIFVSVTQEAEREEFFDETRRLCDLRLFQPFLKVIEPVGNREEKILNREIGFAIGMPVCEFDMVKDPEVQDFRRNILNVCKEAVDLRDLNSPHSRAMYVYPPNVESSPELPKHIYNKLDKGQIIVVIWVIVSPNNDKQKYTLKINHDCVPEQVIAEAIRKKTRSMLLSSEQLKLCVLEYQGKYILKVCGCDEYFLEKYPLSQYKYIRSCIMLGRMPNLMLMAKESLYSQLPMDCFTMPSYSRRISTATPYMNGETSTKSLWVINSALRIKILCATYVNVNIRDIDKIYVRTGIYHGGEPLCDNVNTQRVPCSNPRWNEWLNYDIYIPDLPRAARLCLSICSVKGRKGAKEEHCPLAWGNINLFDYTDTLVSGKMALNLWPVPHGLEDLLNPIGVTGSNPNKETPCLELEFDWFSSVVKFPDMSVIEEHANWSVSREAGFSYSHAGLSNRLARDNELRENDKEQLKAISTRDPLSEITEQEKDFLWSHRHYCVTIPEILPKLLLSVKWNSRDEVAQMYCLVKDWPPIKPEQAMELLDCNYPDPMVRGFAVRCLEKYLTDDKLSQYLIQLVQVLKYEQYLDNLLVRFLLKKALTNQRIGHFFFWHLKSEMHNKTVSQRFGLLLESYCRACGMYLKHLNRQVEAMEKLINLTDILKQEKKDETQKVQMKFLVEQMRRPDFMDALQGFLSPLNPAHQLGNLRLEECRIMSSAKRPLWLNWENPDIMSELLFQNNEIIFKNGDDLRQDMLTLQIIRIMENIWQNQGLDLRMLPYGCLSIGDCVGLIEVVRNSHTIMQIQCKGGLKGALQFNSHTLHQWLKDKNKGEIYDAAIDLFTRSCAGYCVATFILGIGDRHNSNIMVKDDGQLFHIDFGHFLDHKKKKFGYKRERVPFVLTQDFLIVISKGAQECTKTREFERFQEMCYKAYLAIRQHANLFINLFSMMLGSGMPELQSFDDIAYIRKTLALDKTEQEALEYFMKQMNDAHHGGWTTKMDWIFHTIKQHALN
UniProt P42338, whole entry: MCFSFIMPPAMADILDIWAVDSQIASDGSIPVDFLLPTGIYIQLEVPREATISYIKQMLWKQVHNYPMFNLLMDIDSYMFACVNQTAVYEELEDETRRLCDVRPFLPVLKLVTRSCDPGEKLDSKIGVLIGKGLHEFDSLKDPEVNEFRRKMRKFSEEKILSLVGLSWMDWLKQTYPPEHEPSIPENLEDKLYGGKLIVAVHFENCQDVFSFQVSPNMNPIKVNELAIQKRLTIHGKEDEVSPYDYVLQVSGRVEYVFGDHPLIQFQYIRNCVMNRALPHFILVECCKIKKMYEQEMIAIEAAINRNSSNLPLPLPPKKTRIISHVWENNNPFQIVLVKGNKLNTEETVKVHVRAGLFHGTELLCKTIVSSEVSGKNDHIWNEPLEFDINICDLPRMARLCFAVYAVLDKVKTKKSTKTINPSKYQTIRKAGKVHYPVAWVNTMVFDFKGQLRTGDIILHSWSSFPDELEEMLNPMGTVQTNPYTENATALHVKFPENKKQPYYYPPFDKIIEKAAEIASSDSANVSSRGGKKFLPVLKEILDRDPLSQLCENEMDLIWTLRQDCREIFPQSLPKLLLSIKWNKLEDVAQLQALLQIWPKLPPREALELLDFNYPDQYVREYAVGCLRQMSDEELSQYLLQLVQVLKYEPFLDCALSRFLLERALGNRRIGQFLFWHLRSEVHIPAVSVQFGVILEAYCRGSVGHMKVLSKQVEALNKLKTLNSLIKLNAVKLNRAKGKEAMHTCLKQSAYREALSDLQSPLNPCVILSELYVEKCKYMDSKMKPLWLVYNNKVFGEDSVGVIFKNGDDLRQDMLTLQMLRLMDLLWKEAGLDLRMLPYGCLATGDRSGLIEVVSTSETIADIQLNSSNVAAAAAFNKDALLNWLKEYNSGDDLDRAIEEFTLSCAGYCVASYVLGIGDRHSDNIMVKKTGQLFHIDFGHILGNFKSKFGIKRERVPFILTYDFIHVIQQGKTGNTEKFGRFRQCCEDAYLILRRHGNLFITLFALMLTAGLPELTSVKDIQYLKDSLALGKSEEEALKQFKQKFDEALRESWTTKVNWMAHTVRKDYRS
UniProt O00329, whole entry: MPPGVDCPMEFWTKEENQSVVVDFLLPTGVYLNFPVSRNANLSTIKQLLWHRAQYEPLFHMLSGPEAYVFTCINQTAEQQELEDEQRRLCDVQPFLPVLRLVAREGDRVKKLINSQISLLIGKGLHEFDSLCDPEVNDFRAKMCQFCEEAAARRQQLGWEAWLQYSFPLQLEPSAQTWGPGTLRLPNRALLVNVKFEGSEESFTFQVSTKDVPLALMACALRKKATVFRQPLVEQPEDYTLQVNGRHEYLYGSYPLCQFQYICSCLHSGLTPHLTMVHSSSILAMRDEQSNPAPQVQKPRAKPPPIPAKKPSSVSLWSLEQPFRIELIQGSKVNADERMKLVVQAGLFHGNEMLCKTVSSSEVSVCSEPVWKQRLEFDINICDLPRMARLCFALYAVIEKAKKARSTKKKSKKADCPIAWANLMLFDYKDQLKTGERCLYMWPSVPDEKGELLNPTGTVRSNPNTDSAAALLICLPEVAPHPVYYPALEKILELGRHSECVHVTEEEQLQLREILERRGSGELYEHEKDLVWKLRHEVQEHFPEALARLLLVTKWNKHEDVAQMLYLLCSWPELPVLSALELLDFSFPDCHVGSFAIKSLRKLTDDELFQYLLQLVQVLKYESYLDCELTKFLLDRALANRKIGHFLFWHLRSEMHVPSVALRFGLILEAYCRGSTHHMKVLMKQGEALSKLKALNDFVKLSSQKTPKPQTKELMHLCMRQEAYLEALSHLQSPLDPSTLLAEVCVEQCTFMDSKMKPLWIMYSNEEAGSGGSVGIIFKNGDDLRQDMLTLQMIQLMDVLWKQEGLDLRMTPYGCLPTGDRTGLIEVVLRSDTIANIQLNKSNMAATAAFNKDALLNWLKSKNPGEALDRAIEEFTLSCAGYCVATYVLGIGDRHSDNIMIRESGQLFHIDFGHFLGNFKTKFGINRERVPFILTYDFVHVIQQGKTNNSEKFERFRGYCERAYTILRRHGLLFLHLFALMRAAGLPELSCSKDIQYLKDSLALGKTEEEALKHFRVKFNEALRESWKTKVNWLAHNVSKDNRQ
UniProt P48736, whole entry: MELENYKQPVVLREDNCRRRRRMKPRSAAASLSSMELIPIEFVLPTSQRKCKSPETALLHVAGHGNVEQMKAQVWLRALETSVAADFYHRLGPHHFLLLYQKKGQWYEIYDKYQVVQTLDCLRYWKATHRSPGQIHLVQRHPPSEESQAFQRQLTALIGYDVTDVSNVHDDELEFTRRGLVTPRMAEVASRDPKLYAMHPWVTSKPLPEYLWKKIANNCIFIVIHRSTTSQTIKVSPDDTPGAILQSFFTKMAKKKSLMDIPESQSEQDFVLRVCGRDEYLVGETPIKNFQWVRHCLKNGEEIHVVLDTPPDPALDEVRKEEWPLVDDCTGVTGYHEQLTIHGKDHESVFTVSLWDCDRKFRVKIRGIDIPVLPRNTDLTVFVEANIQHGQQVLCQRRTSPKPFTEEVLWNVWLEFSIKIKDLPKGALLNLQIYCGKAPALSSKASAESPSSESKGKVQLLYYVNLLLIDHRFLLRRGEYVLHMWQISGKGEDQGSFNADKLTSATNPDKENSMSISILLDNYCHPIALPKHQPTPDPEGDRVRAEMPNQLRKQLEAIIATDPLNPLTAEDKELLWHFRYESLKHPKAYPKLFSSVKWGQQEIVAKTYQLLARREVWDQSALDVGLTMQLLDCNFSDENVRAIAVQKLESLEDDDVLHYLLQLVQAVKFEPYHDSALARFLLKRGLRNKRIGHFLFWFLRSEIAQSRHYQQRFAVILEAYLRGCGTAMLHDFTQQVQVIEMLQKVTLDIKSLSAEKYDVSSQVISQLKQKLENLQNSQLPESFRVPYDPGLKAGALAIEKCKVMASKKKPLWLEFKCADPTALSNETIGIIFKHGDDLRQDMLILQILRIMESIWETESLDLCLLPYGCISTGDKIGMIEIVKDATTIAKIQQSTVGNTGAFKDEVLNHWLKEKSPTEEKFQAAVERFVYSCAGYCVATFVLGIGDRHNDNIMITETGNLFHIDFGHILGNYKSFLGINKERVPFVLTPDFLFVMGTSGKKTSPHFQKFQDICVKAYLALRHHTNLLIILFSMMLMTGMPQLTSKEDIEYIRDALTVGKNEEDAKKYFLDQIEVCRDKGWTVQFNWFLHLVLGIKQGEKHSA
UniProt P27986, whole entry partner: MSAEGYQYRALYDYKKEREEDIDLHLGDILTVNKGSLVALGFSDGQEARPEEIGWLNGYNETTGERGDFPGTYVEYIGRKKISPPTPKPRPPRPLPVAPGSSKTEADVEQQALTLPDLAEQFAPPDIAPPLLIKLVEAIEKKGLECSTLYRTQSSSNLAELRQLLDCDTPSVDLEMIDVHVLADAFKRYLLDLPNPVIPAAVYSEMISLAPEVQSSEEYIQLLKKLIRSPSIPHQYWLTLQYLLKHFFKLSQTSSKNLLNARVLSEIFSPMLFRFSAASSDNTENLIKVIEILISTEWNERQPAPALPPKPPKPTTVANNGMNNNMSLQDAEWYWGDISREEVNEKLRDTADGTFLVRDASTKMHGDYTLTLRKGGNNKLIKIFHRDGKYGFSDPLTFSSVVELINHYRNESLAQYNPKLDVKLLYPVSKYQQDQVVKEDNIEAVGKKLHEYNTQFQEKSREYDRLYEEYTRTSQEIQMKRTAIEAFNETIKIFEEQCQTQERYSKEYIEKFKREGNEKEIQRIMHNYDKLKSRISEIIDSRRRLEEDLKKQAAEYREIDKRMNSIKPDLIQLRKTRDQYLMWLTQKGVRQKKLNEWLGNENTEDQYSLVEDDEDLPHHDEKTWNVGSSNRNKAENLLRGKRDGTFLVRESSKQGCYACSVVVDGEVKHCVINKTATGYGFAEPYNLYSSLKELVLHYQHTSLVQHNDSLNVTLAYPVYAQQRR

The structures appear in SMILES notation.

Holding throughout (type): biochemical
In experiment [1] the target is α isoform of human Class I PI3 kinases (Homo sapiens (Human), UniProt P42336). As to the kind of experiment: PI3-Kinase Promega ADP-Glo Max assay, α isoform. Conditions: read-out: PI3K α IC50. On the technique in general: ADP-Glo turns the ADP formed in a reaction into a luminescent signal.
In experiment [2] the target is β isoform of human Class I PI3 kinases (Homo sapiens (Human), UniProt P42338). The experiment in a line: PI3-Kinase Promega ADP-Glo Max assay, β isoform. Conditions: read-out: PI3K β IC50.
Experiment [3] deals with δ isoform of human Class I PI3 kinases (Homo sapiens (Human), UniProt O00329). As to the kind of experiment: PI3-Kinase Promega ADP-Glo Max assay, δ isoform. The note with it: read-out: PI3K δ IC50.
Experiment [4] has as its target γ isoform of human Class I PI3 kinases (Homo sapiens (Human), UniProt P48736). As to the kind of experiment: PI3-Kinase Promega ADP-Glo Max assay, γ isoform.

`Cc1ccnc2c(C(=O)N[C@@H](C)c3cc4cccc(C#Cc5cnn(C)c5)c4c(=O)n3-c3ccccc3)c(N)nn12`: the IC50 is 5 to 10 µM in experiment [1], 5 to 10 µM in experiment [2], 5 to 10 µM in experiment [3] and 0.1 to 0.5 µM in experiment [4] (read-out: PI3K γ IC50). In addition, in experiment [4] (ratio of PI3K δ IC50 to PI3K γ IC50), the “PI3K δ/PI3K γ IC50 (selectivity)” value is “X (X = 10 to <50)”.

A word on the IC50: it is the midpoint of a concentration-inhibition curve.
